Antibody variant affinities, Ab-14 heavy chain, assay 1

From the AlphaSeq antibody data of Engelhart et al. 2022 (doi:10.1038/s41597-022-01779-4), copy in the FLAb collection.

The target is the same throughout: PDVDLGDISGINAS, from the HR2 region of SARS-CoV-2 spike.

Each scFv is VH, a (GGGGS)3 linker, VL, as in the parent Ab-14, and differs from it in the CDRs of the heavy chain only.
VH: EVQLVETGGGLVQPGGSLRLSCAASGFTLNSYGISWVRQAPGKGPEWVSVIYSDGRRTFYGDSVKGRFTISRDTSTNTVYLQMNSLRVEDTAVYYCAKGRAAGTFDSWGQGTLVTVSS
VL: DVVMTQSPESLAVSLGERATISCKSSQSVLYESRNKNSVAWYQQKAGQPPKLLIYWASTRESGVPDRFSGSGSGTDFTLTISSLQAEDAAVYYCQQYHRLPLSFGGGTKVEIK

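The parent was found by panning a naive human phage display library on the peptide. Library AAYL49 holds single substitutions and randomly drawn double and triple substitutions in the CDRs. The assay is AlphaSeq: two haploid yeast populations carry antibody and antigen on their surface. Mating (16 h, 30 °C) was followed by selection of diploids and sequencing of their barcodes. Each replicate has its own calibration line, from reference interactions of the BCL2 family. There are three technical replicates.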

Each variant is given by its three heavy chain CDRs, as the data file delimits them; those of the parent are GFTLNSYGIS, VIYSDGRRTFYGDSVK, GRAAGTFDS.
Numbers give log10(Kd / nM), so 0 is 1 nM and 3 is 1 µM. Smaller is tighter.
An entry "nd" has no value in the source: the pair was not observed among the diploids in that replicate. This suggests poor binding but is not conclusive.

{"CDR-H1": "GFTLNSYGIS", "CDR-H2": "VIYSDGKRIFYGDSVK", "CDR-H3": "GRAAGTFDS", "log10 Kd (nM) by replicate": "0.85 / 1.60 / 1.02", "signal with controls": "4 of 9 (3.89)"}
{"CDR-H1": "GFTLNSYGIS", "CDR-H2": "QIYSDGYRTFYGDSVK", "CDR-H3": "GRQAGTFDS", "log10 Kd (nM) by replicate": "nd / nd / nd", "signal with controls": "5 of 9 (4.19)"}
{"CDR-H1": "GFTENSYGIS", "CDR-H2": "VIYSDGRRTFFGDSVK", "CDR-H3": "GRRAGTFDS", "log10 Kd (nM) by replicate": "nd / nd / 5.39", "signal with controls": "4 of 9 (4.39)"}
{"CDR-H1": "GFTLSSYGES", "CDR-H2": "VIYSDGRRTFYGDKVK", "CDR-H3": "GRAAGTFDS", "log10 Kd (nM) by replicate": "6.12 / 3.97 / nd", "signal with controls": "3 of 9 (4.23)"}
{"CDR-H1": "GFTLNQYGIE", "CDR-H2": "VIYSDGRRTFYGDSVK", "CDR-H3": "GRAAGTFDS", "log10 Kd (nM) by replicate": "nd / nd / nd", "signal with controls": "0 of 9"}
{"CDR-H1": "GFTLNSYGWS", "CDR-H2": "VIYSDGRQTFYGDSFK", "CDR-H3": "GRAAGTFDS", "log10 Kd (nM) by replicate": "5.88 / 4.02 / nd", "signal with controls": "2 of 9 (3.97)"}
{"CDR-H1": "GPTLNSYGIS", "CDR-H2": "VIYSDGRRTFYGDSVK", "CDR-H3": "GRAAWTFDS", "log10 Kd (nM) by replicate": "2.26 / 2.58 / 2.96", "signal with controls": "0 of 9"}
{"CDR-H1": "GFTLQSYGIS", "CDR-H2": "VIYSDGRRTFYGDSVK", "CDR-H3": "GRAAGTFDS", "log10 Kd (nM) by replicate": "3.42 / 2.80 / 4.06", "signal with controls": "0 of 9"}
{"CDR-H1": "GFTLISDGIS", "CDR-H2": "VIPSDGRRTFYGDSVK", "CDR-H3": "GRAAGTFDS", "log10 Kd (nM) by replicate": "nd / nd / nd", "signal with controls": "3 of 9 (3.73)"}
{"CDR-H1": "GFTLNSYGIS", "CDR-H2": "VIYSDGRITFQGDSVK", "CDR-H3": "GRAAGIFDS", "log10 Kd (nM) by replicate": "nd / nd / nd", "signal with controls": "1 of 9 (3.03)"}
{"CDR-H1": "HWTLNSYGIS", "CDR-H2": "VIYSDGRRTFYGDSVK", "CDR-H3": "GTAAGTFDS", "log10 Kd (nM) by replicate": "5.81 / nd / nd", "signal with controls": "2 of 9 (4.37)"}
{"CDR-H1": "YFTLNSYGIS", "CDR-H2": "VIYSDGRRTFYGDSVK", "CDR-H3": "GQAAGTFYS", "log10 Kd (nM) by replicate": "nd / nd / 2.38", "signal with controls": "2 of 9 (4.34)"}
{"CDR-H1": "GFTLVSYGIS", "CDR-H2": "VIYSDGRRTFYGDSVK", "CDR-H3": "GRYAQTFDS", "log10 Kd (nM) by replicate": "4.05 / nd / nd", "signal with controls": "0 of 9"}
{"CDR-H1": "GFTLNSYGIS", "CDR-H2": "VIYNDGRRTFYGDNVK", "CDR-H3": "GMAAGTFDS", "log10 Kd (nM) by replicate": "nd / 4.14 / nd", "signal with controls": "0 of 9"}
{"CDR-H1": "GSTVNSYGIS", "CDR-H2": "VIYSDGRRTFYGDSVK", "CDR-H3": "GRAAGTFCS", "log10 Kd (nM) by replicate": "nd / nd / nd", "signal with controls": "1 of 9 (3.65)"}
{"CDR-H1": "GFTLNLYGIS", "CDR-H2": "VIYSDGRRTFYGDSVQ", "CDR-H3": "GRAAGTFDS", "log10 Kd (nM) by replicate": "1.04 / 1.12 / 1.19", "signal with controls": "0 of 9"}
{"CDR-H1": "GFTLNSYGIS", "CDR-H2": "VIYSDGRRTFYGKRVK", "CDR-H3": "PRAAGTFDS", "log10 Kd (nM) by replicate": "nd / nd / nd", "signal with controls": "1 of 9 (3.38)"}
{"CDR-H1": "GFTVNSYGIS", "CDR-H2": "VIYSDGRRTFYGTSVK", "CDR-H3": "GRAAGTFDT", "log10 Kd (nM) by replicate": "2.35 / 2.28 / 2.65", "signal with controls": "7 of 9 (4.54)"}
{"CDR-H1": "NFTLNSYGIS", "CDR-H2": "VIYSDGYRVFYGDSVK", "CDR-H3": "GRAAGTFDS", "log10 Kd (nM) by replicate": "1.26 / 2.64 / 2.31", "signal with controls": "1 of 9 (2.66)"}
{"CDR-H1": "GFTLNSYGIS", "CDR-H2": "VRYSDGRRTFYLDSVK", "CDR-H3": "GWAAGTFDS", "log10 Kd (nM) by replicate": "nd / nd / nd", "signal with controls": "2 of 9 (4.43)"}
{"CDR-H1": "GFTWNSYGIS", "CDR-H2": "VIYSDGRRTFYGDSVE", "CDR-H3": "GRAASTFDS", "log10 Kd (nM) by replicate": "nd / 5.35 / 4.75", "signal with controls": "2 of 9 (3.56)"}
{"CDR-H1": "GCNLNSYGIS", "CDR-H2": "VIYSDGRRTFYGDSVK", "CDR-H3": "HRAAGTFDS", "log10 Kd (nM) by replicate": "nd / 3.87 / nd", "signal with controls": "4 of 9 (3.17)"}
{"CDR-H1": "GFTLNSYGIS", "CDR-H2": "FILSDGRRTFYGDSVK", "CDR-H3": "HRAAGTFDS", "log10 Kd (nM) by replicate": "nd / 5.28 / nd", "signal with controls": "3 of 9 (4.34)"}
{"CDR-H1": "GFTLNSYGIS", "CDR-H2": "QIYSDGRRTFYGDSVK", "CDR-H3": "GRAAGTFFL", "log10 Kd (nM) by replicate": "nd / nd / 4.06", "signal with controls": "2 of 9 (3.75)"}
{"CDR-H1": "GFTLNSYGIS", "CDR-H2": "VIYSDGWRTFYDDSVK", "CDR-H3": "SRAAGTFDS", "log10 Kd (nM) by replicate": "nd / nd / 5.71", "signal with controls": "1 of 9 (4.73)"}
{"CDR-H1": "GFTLNSYVES", "CDR-H2": "VIYSDGRRTFYGDSVK", "CDR-H3": "GRAYGTFDS", "log10 Kd (nM) by replicate": "nd / nd / nd", "signal with controls": "1 of 9 (3.58)"}
{"CDR-H1": "GFTLISYGIS", "CDR-H2": "KIYSDGRRTFYGDSVK", "CDR-H3": "CRAAGTFDS", "log10 Kd (nM) by replicate": "nd / nd / nd", "signal with controls": "0 of 9"}
{"CDR-H1": "GFTLNSYGIS", "CDR-H2": "VRYSDGRRTFYGDSVA", "CDR-H3": "GLAAGTFDS", "log10 Kd (nM) by replicate": "nd / nd / nd", "signal with controls": "0 of 9"}
{"CDR-H1": "GFKLNSYGIS", "CDR-H2": "VIYSDKRRRFYGDSVK", "CDR-H3": "GRAAGTFDS", "log10 Kd (nM) by replicate": "nd / nd / nd", "signal with controls": "0 of 9"}
{"CDR-H1": "GFTLNSYGIS", "CDR-H2": "DIYSDGRRTFRGDSVK", "CDR-H3": "GQAAGTFDS", "log10 Kd (nM) by replicate": "4.21 / 4.49 / 4.16", "signal with controls": "2 of 9 (4.09)"}

Repeated from above, the 2 best binders with a signal in all replicates:

CDR-H1	CDR-H2	CDR-H3	log10 Kd (nM) by replicate	signal with controls
GFTLNLYGIS	VIYSDGRRTFYGDSVQ	GRAAGTFDS	1.04 / 1.12 / 1.19	0 of 9
GFTLNSYGIS	VIYSDGKRIFYGDSVK	GRAAGTFDS	0.85 / 1.60 / 1.02	4 of 9 (3.89)

Three control strains display no target. For library AAYL49, 15% of the pairings with them gave a signal, with a median of 4.06 and one signal in twenty below 2.83, so weak values seen in few replicates may be background. Also given: how often the same scFv was detected with the empty control strains, with their mean in brackets.
In this assay the parent's reference entry averaged 0.65; its copy inside this library read 4.11 (one replicate of three).